In patent US20170216329A1, “Ceramide-Rubusoside Nanomicelles and Their Use in Cancer Therapy” (Board of Supervisors of Louisiana State University and …, priority 2014, published 2017):

System: OVCAR-3 human ovarian cancer cells (missense R248G)
Experiment: cells

EC50 (OVCAR-3, OVCAR-3 cells with MBO-asGCS treatment): 90 nM
EC50 (OVCAR-3, OVCAR-3 cells without MBO-asGCS treatment): 750 nM
SMILES: COc1cccc2c1C(=O)c1c(O)c3c(c(O)c1C2=O)C[C@@](O)(C(=O)CO)C[C@@H]3O[C@H]1C[C@H](N)[C@H](O)[C@H](C)O1 [doxorubicin]
